Measurements taken from PubChem BioAssay AID696 (Sanford-Burnham Center for Chemical Genomics, 2007).
The entries are a selection whose mix differs from that of the whole data set. The source made the active and inactive calls. No stated cut-off is given here; in the data, active means activation fold above about 2; inactive means the rest.

By UniProt entry, the sequences of proteins in these tests, tags left out. Where a name states a change or a piece, a line headed by the entry shows the natural chain unless it says otherwise.
UniProt P05187: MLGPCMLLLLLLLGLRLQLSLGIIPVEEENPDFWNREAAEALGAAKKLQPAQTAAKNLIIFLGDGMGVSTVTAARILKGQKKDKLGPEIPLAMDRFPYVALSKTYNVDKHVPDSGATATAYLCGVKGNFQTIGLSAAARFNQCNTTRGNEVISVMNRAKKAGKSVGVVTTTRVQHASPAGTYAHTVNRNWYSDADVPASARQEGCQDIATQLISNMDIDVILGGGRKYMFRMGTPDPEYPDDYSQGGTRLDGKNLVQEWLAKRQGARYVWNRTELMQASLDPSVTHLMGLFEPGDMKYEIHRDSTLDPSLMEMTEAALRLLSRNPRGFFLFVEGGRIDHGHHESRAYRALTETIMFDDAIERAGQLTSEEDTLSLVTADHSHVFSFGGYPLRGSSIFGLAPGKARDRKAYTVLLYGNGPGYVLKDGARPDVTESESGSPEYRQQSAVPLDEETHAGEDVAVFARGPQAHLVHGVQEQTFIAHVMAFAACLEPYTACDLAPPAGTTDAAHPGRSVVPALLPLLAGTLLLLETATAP

Biological target: Alkaline phosphatase, placental type (Homo sapiens) (UniProt P05187)
Test: activation of human placental alkaline phosphatase – biochemical, luminescence, HTS (AID 696)
Details: purified PLAP enzyme, luminescent substrate read-out; at 20 µM; active compounds read high

SMILES | activation fold
Cc1cccc(OCC(=O)OC2CN3CCC2CC3)c1 (centres undefined) | inactive: 0.9
CCOP1(=S)c2c(C)nn(CCC#N)c2N=C(c2ccccc2F)N1C (centres undefined) | inactive: 1.1
O=P(Nc1nccs1)(c1ccccc1)c1nc2ccccc2s1 (centres undefined) | inactive: 1.4
O=[N+]([O-])c1ccc2c(c1)nnn2O | inactive: 0.9
CCOP1(=S)c2c(C)nn(CCC#N)c2N=C(c2ccc(F)cc2)N1C (centres undefined) | inactive: 1.3
Cc1nn(-c2ccccc2)c2c1P(=O)(N1CCOCC1)N(C)C(c1ccccc1)=N2 (centres undefined) | inactive: 1.3
Cc1ccc(OCC(=O)OC2CN3CCC2CC3)cc1 (centres undefined) | inactive: 1
O=P1(Nc2ccc(Br)cn2)COc2ccccc2OC1 | inactive: 1.1
O=P1(Nc2ncccn2)COc2ccccc2OC1 | inactive: 1.3
Clc1n[nH]nc1-c1nn[nH][15n]1 | inactive: 0.9
O=P1(Nc2ccccn2)COc2ccccc2OC1 | inactive: 1.1
O=C(COc1ccccc1)OC1CN2CCC1CC2 (centres undefined) | inactive: 1
COP1(=S)c2c(C)nn(CCC#N)c2N=C(c2ccc(F)cc2)N1C (centres undefined) | inactive: 1.4
CCN(CC)C(=S)SC(NC=O)C(Cl)(Cl)Cl (centres undefined) | inactive: 0.9
O=C(OC1CN2CCC1CC2)C12CC3CC(CC(C3)C1)C2 (centres undefined) | inactive: 1.4
CC(C)CC(=O)NC(Sc1ccc(Cl)cc1)C(Cl)(Cl)Cl (centres undefined) | inactive: 0.7
Oc1ccccc1CNc1ccccn1 | inactive: 1
Cc1c2non([O-])c-2c(C)[n+](=O)[n+]1[O-] | inactive: 0.9
CCOP(=O)(Nc1ccccc1)OCC | inactive: 1.1
O=[N+]([O-])c1cccc2n[nH]nc12 | inactive: 0.9
CCc1nc2c(n1)c1c(non1O)c1c2no[n+]1[O-] | inactive: 1
CC1CCN(C(=O)Oc2c(Cl)cc(Cl)c3cccnc23)CC1 | inactive: 1.4
c1nnnn1CCn1cnnn1 | inactive: 1
O=P(Nc1nccs1)(c1ccccc1)c1ccccc1 | inactive: 1.2
O=C(OC1CN2CCC1CC2)c1cccc(Cl)c1 (centres undefined) | inactive: 1.1
CCOC(=O)NC(Sc1ccccc1)C(Cl)(Cl)Cl (centres undefined) | inactive: 1
COC(=O)c1cc2c(s1)N=C(c1ccccc1)N(C)P2(=O)N1CCOCC1 (centres undefined) | inactive: 1.2
CCC(=O)N1C2C3N(C(=O)CC)C1C1N(C(=O)CC)C(C(N1C(=O)CC)N3C(=O)CC)N2C(=O)CC | inactive: 0.7
O=P1(Nc2nc3ccc(Cl)cc3s2)COc2ccccc2O1 (centres undefined) | inactive: 1
